# This is a selection; strong and weak results do not stand in their true shares. Calls of active or inactive are those of the source.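 How the source made its calls: active means inhibition above the campaign mean plus 3 SD over all tested compounds (cut at about 24% in these data); inactive means the rest.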
# Experiment: viability loss in Ba/F3 EpoR-JAK2V617F cells – cell-based, luminescence, JAK2V617F inhibitor project, primary screen (AID 1446);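 further: cytokine-independent growth of Ba/F3 cells driven by EpoR plus mutant JAK2; 0% = DMSO-treated cells and 100% = JAK inhibitor I control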
# Conditions: ATP luminescence, at 5.6 µM, active compounds read high
row,SMILES,inhibition
1,COP1(=S)c2c(C)nn(CCC#N)c2N=C(c2ccc(F)cc2)N1C (configuration not stated),inactive: -2.58%
2,O=C(COc1ccccc1)OC1CN2CCC1CC2 (configuration not stated),inactive: -2.06%
3,CCOC(=O)c1ccc(NC(=O)C(C)(CCl)SC)cc1 (configuration not stated),inactive: -2.54%
4,CCC(C)N(CC(C)C)C(=S)SC(NC(C)=O)C(Cl)(Cl)Cl (configuration not stated),inactive: 3.53%
5,CCOC(=O)Nc1ccc([As](=O)(O)O)c(O)c1,inactive: -1.87%
6,Cc1cc(SC(NC(=O)c2ccccc2)C(Cl)(Cl)Cl)nc(C(C)C)n1 (configuration not stated),inactive: -0.09%
7,CCOC(=O)Nc1cccc([As](=O)(O)O)c1,inactive: 0.3%
8,Cc1cc(SC(NC=O)C(Cl)(Cl)Cl)ncn1 (configuration not stated),inactive: 3.26%
9,O=P(Nc1ccccn1)(c1cccc2ccccc12)c1cccc2ccccc12,inactive: 2.47%
10,O=[N+]([O-])c1ccc(Nc2ccc(Oc3ccc([N+](=O)[O-])cc3[N+](=O)[O-])cc2)c([N+](=O)[O-])c1,inactive: -3.05%
11,C[As](=O)(O)c1cccc(C(=O)O)c1,inactive: -4.43%
12,O=[As](O)(c1ccc(O)cc1)c1ccccc1O,inactive: 0.7%
13,Cc1ccc(OP(=O)(Nc2ccc([N+](=O)[O-])cn2)Oc2ccc(C)cc2)cc1,inactive: -6.23%
14,Cc1ccc2nc3c(c(C)c2c1)CC(C(Cl)Cl)S3 (configuration not stated),inactive: -3.29%
15,ClCCSc1nnc(-c2cccnc2)o1,inactive: 1.14%
16,CC(C)c1ccc(OP(=O)(Nc2ccccn2)Oc2ccccc2F)cc1 (configuration not stated),inactive: -1.42%
17,CC(C)NC(=O)NP(=O)(Oc1ccccc1)Oc1ccccc1,inactive: 1.9%
18,CCN(CC)C(=S)SC(NC=O)C(Cl)(Cl)Cl (configuration not stated),inactive: 0.91%
19,O=[N+]([O-])c1cc([N+](=O)[O-])c(-c2ccn[nH]2)s1,inactive: 3.8%
20,Cc1c2c(nc3ccccc13)SC(C(Cl)Cl)C2 (configuration not stated),inactive: -3.36%
21,O=C(OC1CN2CCC1CC2)C12CC3CC(CC(C3)C1)C2 (configuration not stated),inactive: 6.92%
22,Cc1cc(=O)[nH]c(N[N+](=O)[O-])n1,inactive: -1.59%
23,COc1ccc2nc(NP(=O)(c3ccccc3)c3ccccc3)sc2c1,inactive: -1.22%

row,SMILES,inhibition
1,COc1cc(I)ccc1[As](=O)(O)O,inactive: 0.32%
2,COc1ccc(N/C(=N/P(=O)(N2CCOCC2)N2CCOCC2)N2CCOCC2)cc1,inactive: -0.8%
3,O=C(OC1CN2CCC1CC2)c1ccc(Cl)cc1 (configuration not stated),inactive: -2.52%
4,O=[As](O)(O)c1cccnc1,inactive: -1.51%
5,COc1cc(C(=O)NCC2(N3CCOCC3)CCCCC2)cc(Cl)c1OC(C)C,inactive: -2.09%
6,Cc1cccc(OCC(=O)OC2CN3CCC2CC3)c1 (configuration not stated),inactive: -2.53%
7,O=[As](O)(c1cccc(O)c1)c1cccc(O)c1,inactive: -2.37%
8,Cc1ccc(NCCc2c([N+](=O)[O-])cc([N+](=O)[O-])cc2[N+](=O)[O-])cc1,inactive: 1.19%
9,Nc1cccc2c([As](=O)(O)O)cccc12,inactive: -4.31%
10,CCCOP(=S)(Nc1nc(N)cc(=O)[nH]1)OCCC,inactive: 0.03%
11,COc1cc(C2NCCC3(OCCO3)C2(C)C)cc(OC)c1OC (configuration not stated),inactive: 3.85%
12,CCOP(=O)(Nc1cccc2ccccc12)OCC,inactive: 1.57%
13,CCOP1(=S)c2c(C)nn(CCC#N)c2N=C(c2ccccc2F)N1C (configuration not stated),inactive: -2.94%
14,O=P(Nc1nccs1)(Oc1ccccc1)Oc1ccccc1,inactive: 1.14%
15,O=P(Nc1nccs1)(c1ccccc1)c1nc2ccccc2s1 (configuration not stated),inactive: -1.44%
16,CS(=O)(=O)c1cc([N+](=O)[O-])c2no[n+]([O-])c2c1,inactive: -6.5%
17,O=C(O)COc1ccc([As](=O)(O)O)cc1[N+](=O)[O-],inactive: -1.79%
18,Nc1ccccc1[As](=O)(O)c1ccccc1,inactive: 0.93%
19,CCOP1(=S)c2c(C)nn(CCC#N)c2N=C(c2ccc(F)cc2)N1C (configuration not stated),inactive: -1.51%
20,O=[N+]([O-])c1ccc2c(c1)nnn2O,inactive: -3.11%
21,Cc1nn(-c2ccccc2)c2c1P(=O)(N1CCOCC1)N(C)C(c1ccccc1)=N2 (configuration not stated),inactive: 2.62%
22,CC1CCC(C(C)C)C(OP(=O)(Nc2ccccn2)c2ccccc2)C1 (configuration not stated),inactive: -0.46%
23,CN(C)C1(CNC(=O)c2ccc(S(C)(=O)=O)cc2)CCCCC1,inactive: -2.3%

row,SMILES,inhibition
1,O=C(/C=C/c1ccccc1)OC1CN2CCC1CC2 (configuration not stated),inactive: 5.65%
2,O=P1(Nc2ncccn2)COc2ccccc2OC1,inactive: -3.48%
3,Nc1cccc([As](=O)(O)c2ccccc2)c1,inactive: 0.98%
4,Cc1ccc(OCC(=O)OC2CN3CCC2CC3)cc1 (configuration not stated),inactive: -1.07%
5,O=[As](O)(c1cccs1)c1cccs1,inactive: -0.19%
6,O=P1(Nc2ccc(Br)cn2)COc2ccccc2OC1,inactive: -0.89%
7,O=P1(Nc2ccccn2)COc2ccccc2OC1,inactive: -1.26%
8,CCOP(=O)(Nc1ccc(C)cn1)OCC,inactive: -1.06%
9,Clc1n[nH]nc1-c1nn[nH][15n]1,inactive: 1.82%
10,CC(C)(C)C(=O)NC(Sc1ncccn1)C(Cl)(Cl)Cl (configuration not stated),inactive: -1.51%
11,CN(C(=O)Cc1ccc(Cl)c(Cl)c1)[C@@H]1CCCC[C@H]1N1CCCC1,inactive: -5.76%
12,CC(C)/C=N\N=C(\N)N[N+](=O)[O-],inactive: 0.92%
13,O=[As](O)(c1ccccc1Br)c1ccccc1Br,inactive: -3.28%
14,CC1(CBr)Cn2c(nc3ccccc3c2=O)S1 (configuration not stated),inactive: -3.24%
15,O=P(Nc1nccs1)(c1ccccc1)c1ccccc1,inactive: 7.24%
16,CC(C)C(=O)NC(Sc1ccccc1)C(Cl)(Cl)Cl (configuration not stated),inactive: -3.29%
17,c1nnnn1CCn1cnnn1,inactive: -2.64%
18,O=P(Nc1ccccn1)(c1ccc(Br)cc1)c1ccc(Br)cc1,inactive: 3.09%
19,O=P(Nc1nc2ccccc2s1)(c1ccccc1)c1ccccc1,inactive: -3.61%
20,O=[As](O)(c1ccccc1)c1ccc(O)cc1,inactive: 2.12%
21,CC(=O)NC(SC(=S)N(C)C)C(Cl)(Cl)Cl (configuration not stated),inactive: -0.37%

# Source: PubChem BioAssay AID1446 (The Scripps Research Institute Molecular Screening Center, 2008)
